Measured values from paper PMC12392461, “Beyond Estrogenicity: A Comparative Assessment of Bisphenol A and Its Alternatives in In Vitro Assays Questions Safety of Replacements” (Environmental Science & Technology, 2025).

Tested on: Mitochondrial Membrane Potential

With `O=S(=O)(c1ccc(O)cc1)c1ccc(O)cc1` [BPS, 4,4'-Sulfonyldiphenol] the “SR (MMP inhibition)” value was over 10.
